We go through 2 compounds from patent US20040068113A1, “Substituted polycyclic aryl and heteroaryl pyridines useful for selective inhibition of the coagulation cascade” (priority 2003, published 2004).

The chains behind the UniProt entries cited, without tags or fusion partners. Residues count along the entry.
UniProt P08709, 61-212 limits assumed: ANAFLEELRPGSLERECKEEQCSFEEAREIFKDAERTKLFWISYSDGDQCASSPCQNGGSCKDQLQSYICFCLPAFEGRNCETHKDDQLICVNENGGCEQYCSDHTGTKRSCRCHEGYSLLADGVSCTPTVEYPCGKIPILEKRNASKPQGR
UniProt P08709, 213-466 limits assumed: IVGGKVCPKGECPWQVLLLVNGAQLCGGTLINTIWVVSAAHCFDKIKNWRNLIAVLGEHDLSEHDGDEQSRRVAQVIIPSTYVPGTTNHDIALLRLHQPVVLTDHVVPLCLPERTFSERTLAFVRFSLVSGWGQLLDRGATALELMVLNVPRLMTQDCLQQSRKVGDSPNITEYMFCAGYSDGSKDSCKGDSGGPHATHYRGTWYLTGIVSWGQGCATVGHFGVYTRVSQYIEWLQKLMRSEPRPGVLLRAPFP
UniProt P00742, 41-179 limits assumed: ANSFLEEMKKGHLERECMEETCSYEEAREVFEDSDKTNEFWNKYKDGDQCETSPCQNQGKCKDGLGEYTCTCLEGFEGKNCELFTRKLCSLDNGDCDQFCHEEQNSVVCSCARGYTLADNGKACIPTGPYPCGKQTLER
UniProt P00742, 235-488 limits assumed: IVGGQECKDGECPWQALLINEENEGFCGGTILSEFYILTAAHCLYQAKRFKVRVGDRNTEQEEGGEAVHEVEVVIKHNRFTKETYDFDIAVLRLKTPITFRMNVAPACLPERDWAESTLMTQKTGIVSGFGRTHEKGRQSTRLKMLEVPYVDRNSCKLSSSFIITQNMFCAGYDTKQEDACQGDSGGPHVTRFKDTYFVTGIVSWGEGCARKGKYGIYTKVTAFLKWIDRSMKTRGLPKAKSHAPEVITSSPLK
UniProt P00761, 9-231 limits assumed: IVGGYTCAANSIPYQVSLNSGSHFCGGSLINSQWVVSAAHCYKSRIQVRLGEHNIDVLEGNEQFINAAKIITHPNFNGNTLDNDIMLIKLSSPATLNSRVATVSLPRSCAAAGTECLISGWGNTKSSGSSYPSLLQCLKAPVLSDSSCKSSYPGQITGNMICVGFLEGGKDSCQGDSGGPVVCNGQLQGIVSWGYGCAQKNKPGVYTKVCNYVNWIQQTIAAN
UniProt P13726, 33-251 partner limits assumed: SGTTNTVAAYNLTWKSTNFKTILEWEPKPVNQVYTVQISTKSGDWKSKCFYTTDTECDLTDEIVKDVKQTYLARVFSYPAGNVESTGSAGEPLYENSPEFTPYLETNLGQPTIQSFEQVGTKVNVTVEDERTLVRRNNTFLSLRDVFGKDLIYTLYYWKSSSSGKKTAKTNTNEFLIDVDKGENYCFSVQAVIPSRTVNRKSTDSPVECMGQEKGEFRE

For assay [1], the target named is recombinant soluble tissue factor and recombinant human factor VIIa (TF-VIIa) (Homo sapiens, UniProt P08709). Kind of assay: TF-VIIa Assay. As to conditions: read-out: TF-VIIA IC50. Here is the method:
In this assay 100 nM recombinant soluble tissue factor and 2 nM recombinant human factor VIIa are added to a 96-well assay plate containing 0.4 mM of the substrate, N-Methylsulfonyl-D-phe-gly-arg-p-nitroaniline and either inhibitor or buffer (5 mM CaCl2, 50 mM Tris-HCl, pH 8.0, 100 mM NaCl, 0.1% BSA). The reaction, in a final volume of 100 ul is measured immediately at 405 nm to determine background absorbance. The plate is incubated at room temperature for 60 min, at which time the rate of hydrolysis of the substrate is measured by monitoring the reaction at 405 nm for the release of p-nitroaniline. Percent inhibition of TF-VIIa activity is calculated from OD405 nm value from the experimental and control sample.
(§1) Recombinant soluble TF, consisting of amino acids 1-219 of the mature protein sequence was expressed in E. coli and purified using a Mono Q Sepharose FPLC. Recombinant human VIIa was purchased from American Diagnostica, Greenwich Conn. and chromogenic substrate N-Methylsulfonyl-D-phe-gly-arg-p-nitroaniline was prepared by American Peptide Company, Inc., Sunnyvale, Calif. Factor Xa was obtained from Enzyme Research Laboratories, South Bend Ind., thrombin from Calbiochem, La Jolla, Calif., and trypsin and L-BAPNA from Sigma, St. Louis Mo. The chromogenic substrates S-2765 and S-2238 were purchased from Chromogenix, Sweden.

In the next assay the target is Human factor Xa (Homo sapiens, UniProt P00742). Put plainly: Xa Assay. The conditions noted are these: read-out: Factor Xa IC50. The procedure:
(§2) Human factor Xa (0.3 nM) and 0.15 mM N-a-Benzyloxycarbonyl-D-arginyl-L-glycyl-L-arginine-p-nitroaniline-dihydrochloride (S-2765) are added to a 96-well assay plate containing either inhibitor or buffer (50 mM Tris-HCl, pH 8.0, 100 mM NaCl, 0.1% BSA). The reaction, in a final volume of 100 ul is measured immediately at 405 nm to determine background absorbance. The plate is incubated at room temperature for 60 min, at which time the rate of hydrolysis of the substrate is measured by monitoring the reaction at 405 nm for the release of p-nitroaniline. Percent inhibition of Xa activity is calculated from OD405 nm value from the experimental and control sample.
as §1

A further assay has as its target Human thrombin (Homo sapiens, UniProt P00734). Put plainly: Thrombin Assay. The conditions noted are these: read-out: Thrombin II IC50. Here is the method: as §2, with “thrombin (0.28 nm)and 0.06” for “factor Xa (0.3 nM) and 0.15”, “H-D-Phenylalanyl-L-pipecolyl-L-arginine-p-nitroaniline dihydrochloride” for “N-a-Benzyloxycarbonyl-D-arginyl-L-glycyl-L-arginine-p-nitroaniline-dihydrochloride (S-2765)”, “thrombin” for “Xa”, “OD405nm” for “OD405 nm”
as §1

Assay [2] concerns the target Trypsin (type 1× from porcine pancreas) (Sus scrofa, UniProt P00761). Kind of assay: Trypsin Assay. As to conditions: read-out: Trpysin II IC50. Here is the method: Trypsin (5 ug/ml; type 1× from porcine pancreas) and 0.375 mM N-α-Benzoyl-L-arginine-p-nitroanilide (L-BAPNA) are added to a 96-well assay plate containing either inhibitor or buffer (50 mM Tris-HCl, pH 8.0, 100 mM NaCl, 0.1% BSA). The reactions, in a final volume of 100 ul are measured immediately at 405 nm to determine background absorbance. The plate is incubated at room temperature for 60 min, at which time the rate of hydrolysis of the substrate is measured by monitoring the reaction at 405 nm for the release of p-nitroaniline. Percent inhibition of trypsin activity is calculated from OD405 nm value from the experimental and control sample.
as §1

Where two headings read alike, the source gives them in different places.

As for `COC(=O)c1cc(N)cc(-c2ccc(NC(C)C)[n+]([O-])c2CC(=O)NCc2ccc(C(=N)N)cc2)c1`, the IC50 in assay [1] (tested form: TFA) was 0.241 µM; on Human factor Xa (tested form: TFA), more than 100 µM; at Human thrombin (tested form: TFA), 8.8 µM; in assay [2] (tested form: TFA) it was 0.02 µM.

As for `CC(C)Nc1ccc(-c2ccccc2-c2ccc(F)cc2)c(CC(=O)NCc2ccc(C(=N)N)cc2)[n+]1[O-]`, the IC50 came out at 18 µM in assay [1], 75 µM at Human factor Xa, 48.6 µM on Human thrombin and 0.47 µM in assay [2].
